Results as given in BindingDB's records for doi:10.1016/0014-2999(89)90363-4 (Novo Industri, 1989).
Where a name gives a salt, the structure may show the parent alone. Values belong to the compound of their own block, whether it stands above or below them.

By UniProt entry, the sequences of proteins in these tests, tags left out.
UniProt P23977, whole entry: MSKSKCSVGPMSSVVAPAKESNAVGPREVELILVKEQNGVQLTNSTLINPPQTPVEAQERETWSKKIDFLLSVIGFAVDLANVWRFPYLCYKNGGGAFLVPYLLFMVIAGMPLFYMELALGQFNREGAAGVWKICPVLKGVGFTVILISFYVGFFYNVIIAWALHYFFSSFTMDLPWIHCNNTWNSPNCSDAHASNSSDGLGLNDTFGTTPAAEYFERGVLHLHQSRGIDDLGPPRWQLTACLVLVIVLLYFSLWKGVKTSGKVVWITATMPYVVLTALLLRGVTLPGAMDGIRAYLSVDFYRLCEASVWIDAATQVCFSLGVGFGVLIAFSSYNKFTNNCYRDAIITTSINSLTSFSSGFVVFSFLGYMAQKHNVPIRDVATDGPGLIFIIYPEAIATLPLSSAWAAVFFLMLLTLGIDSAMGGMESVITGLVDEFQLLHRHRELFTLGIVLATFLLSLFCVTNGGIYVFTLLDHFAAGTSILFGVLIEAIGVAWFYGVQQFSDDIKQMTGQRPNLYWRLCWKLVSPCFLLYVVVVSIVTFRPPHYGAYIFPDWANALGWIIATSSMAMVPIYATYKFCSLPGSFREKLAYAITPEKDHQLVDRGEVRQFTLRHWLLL
UniProt P14842, whole entry: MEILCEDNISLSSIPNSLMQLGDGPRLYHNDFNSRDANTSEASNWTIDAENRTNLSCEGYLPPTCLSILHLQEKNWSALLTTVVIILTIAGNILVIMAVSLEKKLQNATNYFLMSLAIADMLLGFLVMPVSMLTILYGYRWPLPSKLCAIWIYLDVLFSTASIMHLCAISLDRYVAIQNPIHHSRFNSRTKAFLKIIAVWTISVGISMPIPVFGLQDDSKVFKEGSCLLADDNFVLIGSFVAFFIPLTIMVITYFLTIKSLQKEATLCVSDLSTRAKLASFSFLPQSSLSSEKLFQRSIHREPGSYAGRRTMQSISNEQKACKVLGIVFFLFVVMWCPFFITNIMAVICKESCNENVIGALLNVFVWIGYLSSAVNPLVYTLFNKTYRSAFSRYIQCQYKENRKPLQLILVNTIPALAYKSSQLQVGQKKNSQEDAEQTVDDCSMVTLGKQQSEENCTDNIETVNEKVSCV
UniProt P31652, whole entry: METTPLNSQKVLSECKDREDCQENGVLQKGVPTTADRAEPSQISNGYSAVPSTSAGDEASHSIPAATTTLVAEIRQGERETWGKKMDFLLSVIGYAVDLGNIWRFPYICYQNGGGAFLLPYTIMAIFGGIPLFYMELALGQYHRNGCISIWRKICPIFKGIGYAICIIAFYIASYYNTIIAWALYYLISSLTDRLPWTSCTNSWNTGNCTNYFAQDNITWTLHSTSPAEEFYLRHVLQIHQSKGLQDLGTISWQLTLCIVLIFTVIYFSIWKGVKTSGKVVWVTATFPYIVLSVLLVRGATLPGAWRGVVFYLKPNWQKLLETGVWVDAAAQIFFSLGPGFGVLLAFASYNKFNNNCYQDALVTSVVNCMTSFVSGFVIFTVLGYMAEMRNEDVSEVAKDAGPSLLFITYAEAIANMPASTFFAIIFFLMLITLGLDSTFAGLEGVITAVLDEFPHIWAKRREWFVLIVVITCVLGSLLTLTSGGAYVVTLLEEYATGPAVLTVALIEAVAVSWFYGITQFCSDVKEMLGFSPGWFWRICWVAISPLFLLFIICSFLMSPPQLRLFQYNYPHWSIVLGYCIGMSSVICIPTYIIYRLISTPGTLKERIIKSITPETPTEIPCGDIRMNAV

Key:
[1] = molecular target: Norepinephrine transporter (Rattus norvegicus, UniProt Q9JIA2)
[2] = molecular target: Sodium-dependent dopamine transporter (Rattus norvegicus, UniProt P23977)
[3] = molecular target: 5-hydroxytryptamine receptor 2A (Rattus norvegicus, UniProt P14842)
[4] = molecular target: Sodium-dependent serotonin transporter (Rattus norvegicus, UniProt P31652)

SMILES: CN[C@H]1C[C@H](c2ccc(Cl)c(Cl)c2)c2ccccc21 [CAS_96850-13-4]
Ki [1]: 8.8 nM
Ki [2]: 11.9 nM

Ki [3]: 9500 nM
SMILES: CN(C)CCCC1(c2ccc(F)cc2)OCc2cc(C#N)ccc21 (centres undefined) [CITALOPRAM HYDROBROMIDE]

SMILES: COc1ccc2c(c1)CN(C)CC2c1ccc(Cl)c(Cl)c1 (centres undefined)
Ki [4]: 51 nM
